These results are taken from patent US20260103488.

The target of data set [1] is T1, RRRRRRRRRR (IK00100).
T1 chain: RRRRRRRRRR

Data set [2] has as its target T2, RRRRRRRR (IK00800).
T2 chain: RRRRRRRR

B1: Lck(h) (lymphocyte-specific protein tyrosine kinase) (protein)
chain: MGCGCSSHPEDDWMENIDVCENCHYPIVPLDGKGTLLIRNGSEVRDPLVTYEGSNPPASPLQDNLVIALHSYEPSHDGDLGFEKGEQLRILEQSGEWWKAQSLTTGQEGFIPFNFVAKANSLEPEPWFFKNLSRKDAERQLLAPGNTHGSFLIRESESTAGSFSLSVRDFDQNQGEVVKHYKIRNLDNGGFYISPRITFPGLHELVRHYTNASDGLCTRLSRPCQTQKPQKPWWEDEWEVPRETLKLVERLGAGQFGEVWMGYYNGHTKVAVKSLKQGSMSPDAFLAEANLMKQLQHQRLVRLYAVVTQEPIYIITEYMENGSLVDFLKTPSGIKLTINKLLDMAAQIAEGMAFIEERNYIHRDLRAANILVSDTLSCKIADFGLARLIEDNEYTAREGAKFPIKWTAPEAINYGTFTIKSDVWSFGILLTEIVTHGRIPYPGMTNPEVIQNLERGYRMVRPDNCPEELYQLMRLCWKERPEDRPTFDYLRSVLEDFFTATEGQYQPQP
Take B1: the “phosphorylation of Lck at Y394, western blot with anti-pY394, peptide 1 and 10 µM” value is listed as “a significant increase in the level of phosphorylation detected at amino acid position Y394 of Lck. Again, the level of phosphorylation increased with increasing test peptide concentration” in data set [1] and “a significant increase in the level of phosphorylation detected at amino acid position Y394 of Lck. Again, the level of phosphorylation increased with increasing test peptide concentration” in data set [2]. The “tyrosine phosphorylation of Lck, western blot with 4G10, peptide 1 and 10 µM” value is “a significant increase in the level of phosphorylation observed on Lck. Moreover, the level of phosphorylation increased with increasing test peptide concentration” in data set [1] and “a significant increase in the level of phosphorylation observed on Lck. Moreover, the level of phosphorylation increased with increasing test peptide concentration” in data set [2].
